Test results from PubChem BioAssay AID588493 (Sanford-Burnham Center for Chemical Genomics, 2011).
Only a part is listed here, and it is no random draw. The source made the active and inactive calls.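 Rule for the calls: active = inhibition at 20 µM, scaled to each plate's controls, above about 33% (limit read from the data); inactive = the rest.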

Amino acid sequences for entries named in this document (tags omitted).
UniProt O00487, whole entry, looked up: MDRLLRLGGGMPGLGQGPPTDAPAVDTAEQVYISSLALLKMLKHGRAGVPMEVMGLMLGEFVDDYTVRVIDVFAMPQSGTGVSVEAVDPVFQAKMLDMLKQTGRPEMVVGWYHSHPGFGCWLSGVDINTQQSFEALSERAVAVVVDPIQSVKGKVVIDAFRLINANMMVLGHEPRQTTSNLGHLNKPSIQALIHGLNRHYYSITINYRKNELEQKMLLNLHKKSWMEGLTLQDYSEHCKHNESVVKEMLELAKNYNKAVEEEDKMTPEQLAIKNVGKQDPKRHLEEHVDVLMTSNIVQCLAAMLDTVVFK

Each molecule was assayed against 26S proteasome non-ATPase regulatory subunit 14 (Homo sapiens) (UniProt O00487) (assay: inhibition of 26S proteasome subunit Rpn11 – biochemical, fluorescence polarization, uHTS, primary screen (AID 588493)). Settings: human 26S proteasome, Ub4-pepOG fluorescence polarization; at 20 µM; hits give high values; 20S core pre-blocked with epoxomicin.

Row | SMILES | inhibition
1 | Cc1cc(=O)[nH]c(N[N+](=O)[O-])n1 | inactive: -2.3%
2 | Cc1c2c(nc3ccccc13)SC(C(Cl)Cl)C2 (configuration not stated) | inactive: -3.2%
3 | COc1ccc(N/C(=N/P(=O)(N2CCOCC2)N2CCOCC2)N2CCOCC2)cc1 | inactive: -3.7%
4 | O=[N+]([O-])c1cc(Oc2ccc([N+](=O)[O-])cc2C(F)(F)F)cc([N+](=O)[O-])c1 | inactive: 2.7%
5 | O=C(COc1ccccc1)OC1CN2CCC1CC2 (configuration not stated) | inactive: -8.9%
6 | O=C(Nc1ccncc1[N+](=O)[O-])c1ccc([N+](=O)[O-])cc1[N+](=O)[O-] | inactive: 3%
7 | O=C(O)C(=O)c1ccc(N(CCCl)CCCl)cc1 | inactive: -0.2%
8 | COP1(=S)c2c(C)nn(CCC#N)c2N=C(c2ccc(F)cc2)N1C (configuration not stated) | inactive: -1.8%
9 | COC(=O)C1(C)COP(=O)(N2CCCC2)OC1 (configuration not stated) | inactive: -1.1%
10 | CCC(C)N(CC(C)C)C(=S)SC(NC(C)=O)C(Cl)(Cl)Cl (configuration not stated) | inactive: 1%
11 | CCOC(=O)c1ccc(NC(=O)C(C)(CCl)SC)cc1 (configuration not stated) | inactive: -1.2%
12 | O=C(OC1CN2CCC1CC2)c1cccc([N+](=O)[O-])c1 (configuration not stated) | inactive: -0.3%
13 | CSc1ccc(Nc2c([N+](=O)[O-])cc([N+](=O)[O-])cc2[N+](=O)[O-])cc1 | inactive: -6.5%
14 | CCCCOc1ccc(C(=O)NCC2(N3CCCCC3)CCCCC2)cc1OC | inactive: 12%
15 | Cc1cc(SC(NC(=O)c2ccccc2)C(Cl)(Cl)Cl)nc(C(C)C)n1 (configuration not stated) | inactive: -1.1%
16 | COP(=O)(OC)N1CC1c1ccccc1 (configuration not stated) | inactive: -3.1%
17 | CC1CCNP(=O)(N(CCCl)CCCl)O1 (configuration not stated) | inactive: -2.3%
18 | O=C(O)C(O)c1ccc(N(CCCl)CCCl)cc1 (configuration not stated) | inactive: -13.7%
19 | CCOC(=O)Nc1ccc([As](=O)(O)O)c(O)c1 | inactive: -3.9%
20 | O=[N+]([O-])c1ccc(Nc2ccc(Oc3ccc([N+](=O)[O-])cc3[N+](=O)[O-])cc2)c([N+](=O)[O-])c1 | inactive: -6.1%
21 | Cc1cc(SC(NC=O)C(Cl)(Cl)Cl)ncn1 (configuration not stated) | inactive: -5.6%
22 | O=P(Nc1ccccn1)(c1cccc2ccccc12)c1cccc2ccccc12 | inactive: 10.6%
23 | CCOC(=O)Nc1cccc([As](=O)(O)O)c1 | inactive: -0.6%
24 | O=C(/C=C/c1ccccc1)OC1CN2CCC1CC2 (configuration not stated) | inactive: 1%

Row | SMILES | inhibition
25 | CCCC1OP(=O)(Nc2ccccc2)OCC1CC (configuration not stated) | inactive: -2.4%
26 | CN(C)C1(CNC(=O)c2ccc(S(C)(=O)=O)cc2)CCCCC1 | inactive: -3.4%
27 | Cc1nn(-c2ccccc2)c2c1P(=O)(N1CCOCC1)N(C)C(c1ccccc1)=N2 (configuration not stated) | inactive: -2.9%
28 | Cc1ccc(C(=O)OC2CN3CCC2CC3)cc1 (configuration not stated) | inactive: 0.5%
29 | CC1CCC(C(C)C)C(OP(=O)(Nc2ccccn2)c2ccccc2)C1 (configuration not stated) | inactive: -1.1%
30 | O=[As](O)(c1cccs1)c1cccs1 | inactive: -3.7%
31 | Cc1ccc(OCC(=O)OC2CN3CCC2CC3)cc1 (configuration not stated) | inactive: -1.8%
32 | NS(=O)(=O)c1cccc(NC(=O)COC(=O)C(O)(c2ccccc2)c2ccccc2)c1 | inactive: -2%
33 | O=P1(Nc2ccc(Br)cn2)COc2ccccc2OC1 | inactive: -5.1%
34 | Nc1cccc([As](=O)(O)c2ccccc2)c1 | inactive: 7.6%
35 | O=P1(Nc2ncccn2)COc2ccccc2OC1 | inactive: -0.5%
36 | Cc1ccc(S(=O)(=O)N(CCCN)CCCc2c(C)nc(N)[nH]c2=O)cc1 | inactive: -8.9%
37 | Clc1n[nH]nc1-c1nn[nH][15n]1 | inactive: -0.8%
38 | O=P1(N(CCCl)CCCl)NCCC(C(F)(F)F)O1 (configuration not stated) | inactive: -3.2%
39 | CC(C)(C)C(=O)NC(Sc1ncccn1)C(Cl)(Cl)Cl (configuration not stated) | inactive: 4.4%
40 | CCOP(=O)(Nc1ccc(C)cn1)OCC | inactive: 0.3%
41 | CN(CCCl)Cc1cc(Cl)c(NC2=NCCN2)c(Cl)c1 | inactive: -1.7%
42 | CCC1=CC2Cc3nc4ccc(Cl)cc4c(N)c3C(C1)C2 (configuration not stated) | inactive: -26.9%
43 | O=P1(Nc2ccccn2)COc2ccccc2OC1 | inactive: -8.4%
44 | CCOP(=O)(NC(=NC(C)c1ccccc1)NC(C)c1ccccc1)OCC (configuration not stated) | inactive: -9.5%
45 | CC1(CBr)Cn2c(nc3ccccc3c2=O)S1 (configuration not stated) | inactive: -9.9%
46 | CN(C(=O)Cc1ccc(Cl)c(Cl)c1)[C@@H]1CCCC[C@H]1N1CCCC1 | inactive: -3.7%
47 | CC(C)/C=N\N=C(\N)N[N+](=O)[O-] | inactive: 1.6%
48 | COc1ccccc1CNC(=O)COC(=O)C(O)(c1ccccc1)c1ccccc1 | inactive: -3.7%

Row | SMILES | inhibition
49 | Cc1cccc(OCC(=O)OC2CN3CCC2CC3)c1 (configuration not stated) | inactive: 2%
50 | O=[As](O)(c1cccc(O)c1)c1cccc(O)c1 | inactive: -11.8%
51 | O=[As](O)(O)c1cccnc1 | inactive: 2.8%
52 | COc1cc(C(=O)NCC2(N3CCOCC3)CCCCC2)cc(Cl)c1OC(C)C | inactive: 2.9%
53 | CS(=O)(=O)c1ccc(Cl)c(NC(=O)COC(=O)C(O)(c2ccccc2)c2ccccc2)c1 | inactive: 6.6%
54 | O=C(OC1CN2CCC1CC2)c1ccc(Cl)cc1 (configuration not stated) | inactive: 5.2%
55 | COc1cc(C2NCCC3(OCCO3)C2(C)C)cc(OC)c1OC (configuration not stated) | inactive: -1.6%
56 | CCOP(=O)(Nc1cccc2ccccc12)OCC | inactive: -8.5%
57 | CCCOP(=S)(Nc1nc(N)cc(=O)[nH]1)OCCC | inactive: 12.2%
58 | Nc1cccc2c([As](=O)(O)O)cccc12 | inactive: 11.5%
59 | Cc1ccc(NCCc2c([N+](=O)[O-])cc([N+](=O)[O-])cc2[N+](=O)[O-])cc1 | inactive: 4.2%
60 | O=C(O)COc1ccc([As](=O)(O)O)cc1[N+](=O)[O-] | inactive: 5%
61 | Nc1ccccc1[As](=O)(O)c1ccccc1 | inactive: -3.3%
62 | CS(=O)(=O)c1cc([N+](=O)[O-])c2no[n+]([O-])c2c1 | inactive: -0.1%
63 | CCOP1(=S)c2c(C)nn(CCC#N)c2N=C(c2ccccc2F)N1C (configuration not stated) | inactive: 9.1%
64 | O=P(Nc1nccs1)(Oc1ccccc1)Oc1ccccc1 | inactive: -2.6%
65 | O=P(Nc1nccs1)(c1ccccc1)c1nc2ccccc2s1 (configuration not stated) | inactive: -6.5%
66 | O=[N+]([O-])c1ccc2c(c1)nnn2O | inactive: -0.1%
67 | CN(C)C(=O)c1cc([N+](=O)[O-])cc2c1-c1c(cc([N+](=O)[O-])cc1[N+](=O)[O-])C2=O | inactive: -6.1%
68 | CN(C(=O)Cc1ccc(Cl)c(Cl)c1)[C@H]1CC[C@@]2(CCCO2)C[C@@H]1N1CCCC1 | inactive: 0.8%
69 | N#CCCN(C(=O)COC(=O)C(O)(c1ccccc1)c1ccccc1)c1ccc(F)cc1 | inactive: -9.9%
70 | CN(C(=O)Cc1ccccc1)[C@@H]1CC[C@]2(CCCO2)C[C@H]1N1CCCC1 | inactive: 3.3%
71 | CCOP1(=S)c2c(C)nn(CCC#N)c2N=C(c2ccc(F)cc2)N1C (configuration not stated) | inactive: -10.2%
72 | NC(=O)Nc1ccc([As](=O)(O)O)cc1 | inactive: -6.5%
